Results on 19 compounds are retold here after PubChem BioAssay (Tox21).

Amino acid sequences for entries named in this document (tags omitted).
UniProt P10635, whole entry, looked up: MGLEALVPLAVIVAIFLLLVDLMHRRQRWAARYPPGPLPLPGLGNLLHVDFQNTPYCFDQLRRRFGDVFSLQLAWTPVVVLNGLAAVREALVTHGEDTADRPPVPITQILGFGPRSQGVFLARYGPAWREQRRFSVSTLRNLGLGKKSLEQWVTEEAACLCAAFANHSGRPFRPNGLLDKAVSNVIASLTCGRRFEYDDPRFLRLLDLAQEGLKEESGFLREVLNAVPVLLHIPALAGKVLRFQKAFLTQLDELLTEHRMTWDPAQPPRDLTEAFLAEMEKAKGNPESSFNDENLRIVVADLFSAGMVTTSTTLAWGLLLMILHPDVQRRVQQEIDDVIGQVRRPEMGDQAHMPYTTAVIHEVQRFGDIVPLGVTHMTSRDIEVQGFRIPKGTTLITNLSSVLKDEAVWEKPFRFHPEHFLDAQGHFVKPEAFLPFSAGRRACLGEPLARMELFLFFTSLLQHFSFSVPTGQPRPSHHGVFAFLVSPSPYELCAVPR

Structures are written as SMILES. This is a selection; strong and weak results do not stand in their true shares. Results filed as inconclusive are left out. Activity calls are given as the source filed them. Calls come from the whole dose curve; as a rule, active = well fitted inhibition curve with a large enough effect in the repeat runs; inconclusive = weak or mixed curves; inactive = no such curve, though single readings can be large or run the other way.
% is set by controls: 0 for no effect and ±100 for the full control effect; potency is the fitted concentration of half-maximal effect.

For the experiment, the target named is Cytochrome P450 2D6 (Homo sapiens) (UniProt P10635). The experiment can be described thus: Cytochrome P450 Family 2 Subfamily D Member 6 (CYP2D6) small molecule antagonists: luciferase reporter qHTS assay (AID 1671196). Note: nearly all actives have a fitted effect of over 50% in size. Conditions: P450-Glo CYP2D6 enzyme assay, luciferin luminescence, 1 h; series mostly up to 115 µM. The source says: U.S. Tox21 Program National Center for Advancing Translational Sciences [NCATS] U.S. Environmental Protection Agency [EPA] National Institutes of Environmental Health Sciences [NIEHS] National Toxicology Program [NTP] U.S. Food and Drug Administration [FDA] Tox21 Assay Overview: Cytochrome P450 (CYP) enzymes are membrane-bound hemeproteins that play a key role in metabolism of drugs and xenobiotics. Evaluation of the effect of chemicals on CYP isozymes is useful to minimize the adverse drug reactions and toxicities in drug development process. Tox21 chemicals were tested for their effect on CYP enzyme activities by using P450-Glo (TM) screening systems (Promega Corporation, Madison, WI). These systems provide a luminescent method containing proluciferin substrates and are converted to luciferin products by CYP isozymes. The luciferin products formed are detected with a luciferin detection reagent, and the amount of light produced is proportional to CYP activity. P450-Glo (TM) CYP2D6 screening system (Catalog. No. V9890) was used to detect the compounds that interfere in CYP2D6 activity.
Tox21 Assay Protocol Summary: Two ul of enzyme-substrate mix was dispensed into medium binding white/solid 1536-well plates (Greiner Bio-One North America Inc., Monroe, NC) using a BioRaptr Flying Reagent Dispenser (FRD, Beckman Coulter, Brea, CA). […] The assay plates were incubated at room temperature for 10 min. Then 2 ul of NADPH regeneration solution was added to each well of the assay plates using an FRD and incubated at room temperature for 1 h. The reaction was stopped by adding 4 ul of detection reagent using an FRD and after 20 min incubation at room temperature the luminescence signal was measured using a ViewLux plate reader (Perkin Elmer, Shelton, CT). Data were expressed as relative luminescence units.
Background: In a reporter assay the amount or activity of a reporter protein is the signal.
Consider `CCNC(C)Cc1ccc2c(c1)OCO2` (centres undefined), for which the Potency was active: 0.215 µM.
Still for that read-out and setting: in the case of `CCCCO[P+](=O)OCCCC` it was “inactive”; in that of `O=C(Cl)Oc1ccccc1`, “inactive”; in that of `O=[P+](Oc1ccccc1)Oc1ccccc1`, “inactive”.
As to `CN(C(=O)Cc1cccc2occc12)[C@H]1CC[C@@]2(CCCO2)C[C@@H]1N1CCCC1`, the Potency was active: 0.199 µM.
As for `O=P(Cl)(Cl)c1ccccc1`, the Potency entry was “inactive”.
As to `O=[As]c1ccccc1` (centres undefined), the Potency is active: 20 µM.
As for `ClP(Cl)c1ccccc1`, the Potency result is “inactive”.
Turning to `CCCCC(CC)CO[P+](=O)OCC(CC)CCCC` (centres undefined), the Potency result is “inactive”.
As for `CCOP(=S)(CC)Sc1ccccc1` (centres undefined), the Potency is active: 31.6 µM.
With `O=[N+]([O-])c1ccc([N+](=O)[O-])cc1`, the Potency is active: 44.8 µM.
For the compound `CCC(C)(OOC(C)(C)C)OOC(C)(C)C`, the activity change, negative = inhibition is inactive: -2.36% [at 23.6 µM].
Turning to `O=P(Cl)(Oc1ccccc1)Oc1ccccc1`, the Potency result is “inactive”.
As for `Cc1cc([N+](=O)[O-])cc([N+](=O)[O-])c1O`, the Potency was active: 59.7 µM.
The same measure, in the same setting: to `CN(C(=O)Cc1ccccc1)[C@H]1CC[C@@]2(CCCO2)C[C@@H]1N1CCCC1` belongs active: 12.3 µM; to `CCCCOP(OCCCC)OCCCC`, “inactive”; to `CN(C(=O)Cc1ccc(Cl)c(Cl)c1)[C@H]1CC[C@@]2(CCCO2)C[C@@H]1N1CCCC1`, active: 3.89 µM.
On to `CCCCCCCCCCCCCC[P+](CCCCCC)(CCCCCC)CCCCCC`, for which the Potency was active: 0.316 µM.
For the compound `CC(C)CCCCCCCOP(OCCCCCCCC(C)C)Oc1ccccc1`, the Potency result was “inactive”.
